Laboratory results published in PMC10999750.
pKd: −log10 of the molar value.

Legend:
Assay in all cases: fluorescence polarisation; FITC-tagged peptide ('2 nm' [sic]) with importin two-fold serially diluted from 4.5 µM across 23 wells, 200 µl, GST Buffer A (50 mM Tris, 125 mM NaCl); three independent experiments
[1] = target: AAV 09YN Cap-BR-mMAJOR (FITC labelled peptide, residues 117-167, major site mutant)
[2] = target: AAV 09YN Cap-BR-mMINOR (FITC labelled peptide, residues 117-167, minor site mutant)
[3] = target: AAV 09YN Cap-BR-mMINOR+mMAJOR (FITC labelled peptide, residues 117-167, minor and major site mutant)

## Mouse importin α2 lacking the IBB domain (mImpα2DIBB) (from UniProt P52293 70-529) (domain or fragment)
[1]
  pKd: 6.05
[2]
  pKd: 5.79
[3]
  pKd: 5.08
